# Measurements: PubChem BioAssay (NCATS)
# Sequences of proteins named here, by UniProt entry; tags and fusion partners are left off. A change or cut given only in a name is not applied to a line headed by its entry.
# UniProt P02791: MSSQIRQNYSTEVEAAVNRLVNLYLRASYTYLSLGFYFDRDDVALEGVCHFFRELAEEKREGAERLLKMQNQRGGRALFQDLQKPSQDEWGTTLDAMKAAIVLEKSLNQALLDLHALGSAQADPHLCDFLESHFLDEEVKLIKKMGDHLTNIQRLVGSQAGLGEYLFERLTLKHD
# UniProt P10635, whole entry, looked up: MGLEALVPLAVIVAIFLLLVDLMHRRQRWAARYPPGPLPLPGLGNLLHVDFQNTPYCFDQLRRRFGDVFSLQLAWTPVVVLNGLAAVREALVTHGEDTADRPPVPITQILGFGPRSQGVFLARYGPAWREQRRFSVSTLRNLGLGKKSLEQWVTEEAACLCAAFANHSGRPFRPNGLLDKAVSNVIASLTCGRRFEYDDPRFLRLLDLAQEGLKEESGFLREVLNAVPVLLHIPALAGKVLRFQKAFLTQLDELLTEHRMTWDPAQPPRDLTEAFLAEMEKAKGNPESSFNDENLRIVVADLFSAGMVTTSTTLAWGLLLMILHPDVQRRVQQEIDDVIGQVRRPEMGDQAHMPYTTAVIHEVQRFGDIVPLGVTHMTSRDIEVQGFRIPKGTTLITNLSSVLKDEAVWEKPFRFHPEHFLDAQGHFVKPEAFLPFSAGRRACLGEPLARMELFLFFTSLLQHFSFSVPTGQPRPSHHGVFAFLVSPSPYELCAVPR
# UniProt Q9HAZ1: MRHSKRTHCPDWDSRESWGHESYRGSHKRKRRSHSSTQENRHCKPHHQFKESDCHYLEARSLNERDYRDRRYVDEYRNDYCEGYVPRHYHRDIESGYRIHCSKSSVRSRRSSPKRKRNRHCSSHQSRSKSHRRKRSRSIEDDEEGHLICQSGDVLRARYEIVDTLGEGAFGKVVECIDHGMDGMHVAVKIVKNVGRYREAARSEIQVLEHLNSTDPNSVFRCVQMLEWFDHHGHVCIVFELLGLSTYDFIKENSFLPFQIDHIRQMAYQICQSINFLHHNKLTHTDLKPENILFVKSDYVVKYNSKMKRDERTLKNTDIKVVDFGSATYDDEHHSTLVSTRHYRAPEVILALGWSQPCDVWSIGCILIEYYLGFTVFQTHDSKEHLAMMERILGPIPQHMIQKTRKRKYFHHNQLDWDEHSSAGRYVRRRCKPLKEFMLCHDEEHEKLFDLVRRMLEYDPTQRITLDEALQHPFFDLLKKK
# For part of these data: What follows is the remainder of the data, with few or none of the hits. Records with an inconclusive call do not appear. The list shows a part of the results, in another mix than the full data. Activity calls are given as the source filed them. Unless noted, the call rests on the fitted dose curve; in most records, active means well fitted curve in the direction sought with a large enough effect; inconclusive means small, poorly fitted or top-dose-only effect, or another doubt; inactive means no such curve, though single readings can be large; an effect the other way counts as inactive or inconclusive.
# How the values were obtained:
# [1] = system: MCC-13; experiment: qHTS assay to identify novel small-molecules to repurpose for Merkel cell carcinoma treatment (AID 1296009); conditions: MCC and control cell lines, CellTiter-Glo viability, 72 h; at 46 µM (top of the series); further: on the % scale 0 is the no-effect control and ±100 the full control effect; nearly all actives have a fitted effect of over 60% in size
# In short: (§1)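 Cells exposed to NPC (8-point) and MIPE (11-point) compound dilutions for 72 hr at 37 degree celsius; viability read by CellTiter-Glo luminescence, normalized to no-cell and DMSO in-plate controls.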
# [2] = system: MCC-26; experiment: as above; conditions: MCC and control cell lines, CellTiter-Glo viability, 72 h; at 46 µM (top of the series)
# In short: as §1
# [3] = system: MKL-1; experiment: as above; conditions: MCC and control cell lines, CellTiter-Glo viability, 72 h; at 46 µM (top of the series)
# In short: as §1
# [4] = system: UISO; experiment: as above; conditions: MCC and control cell lines, CellTiter-Glo viability, 72 h; at 46 µM (top of the series)
# In short: as §1
# [5] = system: KB-3-1; experiment: Cytotoxic Profiling of Annotated Libraries Using Quantitative High-Throughput Screening (AID 1296008); conditions: Five cell lines viability, CellTiter-Glo ATP luminescence, 48-72 h, stronger effect = lower value; further: on the % scale 0 is the no-effect control and ±100 the full control effect; nearly all actives have a fitted effect of over 60% in size
# In short: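 Compounds were pin-transferred onto cells and incubated 48 or 72 hr at 37 degree Celsius, 95% humidity. CellTiter-Glo was added, plates sat 10 min at room temperature, then ATP-coupled luminescence was imaged as the viability read-out.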
# [6] = system: MKL-2; experiment: qHTS assay to identify novel small-molecules to repurpose for Merkel cell carcinoma treatment (AID 1296009); conditions: MCC and control cell lines, CellTiter-Glo viability, 72 h; at 46 µM (top of the series); further: on the % scale 0 is the no-effect control and ±100 the full control effect; nearly all actives have a fitted effect of over 60% in size
# In short: as §1
# [7] = system: WaGa; experiment: as above; conditions: MCC and control cell lines, CellTiter-Glo viability, 72 h; at 46 µM (top of the series)
# In short: as §1
# [8] = qHTS Assay for Lipid Storage Modulators (AID 1519; calls by dose curve; on activity change, negative = inhibition: on the % scale 0 is the no-effect control and ±100 the full control effect); conditions: Drosophila S3 cells, BODIPY lipid droplet/cell ratio, laser cytometry, cells loaded with oleic acid
# In short: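 Cells seeded at 5,000 per well were treated with compounds over a concentration series and loaded with oleic acid (400 uM, as added). Lipid droplet fluorescence (488 nm excitation, 500-530 nm channel) was read by laser-scanning cytometry and normalized to 20 uM Triacsin C.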
# [9] = target: Ferritin light chain (Equus caballus) (UniProt P02791); experiment: qHTS Validation Assay for Identification of Novel General Anesthetics (AID 2323); conditions: horse apoferritin, anesthetic-site fluorescent probe displacement; at 76.9 µM (top of the series); further: on the % scale 0 is the no-effect control and ±100 the full control effect
# In short: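 Normalized fluorescence response, scaled between free 1-AMA and 1-AMA/apoferritin complex, fitted to a four-parameter Hill equation for concentration-effect values. Binding mix: 10 uM horse-spleen apoferritin, 50% saturated 1-AMA in PBS; read 380/535 nm after 10 min.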
# [10] = target: Cytochrome P450 2D6 (Homo sapiens) (UniProt P10635); experiment: Cytochrome P450 family 2 subfamily D member 6 (CYP2D6) small molecule antagonists: luciferase biochemical (cell-free) qHTS assay (AID 1645840; active means well fitted curve in the direction sought with a large enough effect in the repeat runs; an effect the other way counts as inactive or inconclusive; further: potency means the concentration at half of the fitted maximal effect; nearly all actives have a fitted effect of over 55% in size); conditions: P450-Glo CYP2D6 enzyme, luciferin luminescence, 1 h
# In short: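 P450-Glo luminescent screen: recombinant CYP2D6 enzyme–proluciferin substrate mix preincubated with compound 10 min at room temperature, then NADPH regeneration added for 1 h at room temperature. Detection reagent added for 20 min; luciferin light read as relative luminescence units.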
# [11] = target: Dual specificity protein kinase CLK4 (Homo sapiens) (UniProt Q9HAZ1); experiment: qHTS Assay for Inhibitors of CDC-like Kinase 4 (Kinase-Glo Assay) (AID 1770); conditions: recombinant Clk4, Kinase-Glo ATP depletion luminescence; further: potency means the concentration at half of the fitted maximal effect; nearly all actives have a fitted effect of over 65% in size
# In short: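 Clk4 25 nM, RS peptide 100 uM, ATP 1 uM, pH 7.5 Tris, 10 mM MgCl2, 2.5 mM DTT; 4.5 h RT; ATP depletion read by Kinase-Glo luminescence.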
# [12] = target: Dual specificity protein kinase CLK4 (Homo sapiens) (UniProt Q9HAZ1); experiment: qHTS Assay for Inhibitors of CDC-like Kinase 4 (ADP-Glo Assay) (AID 1771); conditions: recombinant CLK4, ADP-Glo luminescence; further: potency means the concentration at half of the fitted maximal effect; nearly all actives have a fitted effect of over 70% in size
# In short: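 Kinase reaction: Clk4 at 25 nM, RS repeat peptide substrate at 100 uM, ATP at 1 uM, 1 hr, room temperature. Product ADP detected as luciferase signal via ADP-Glo.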
smiles,measurement,setting,value
Cc1cccc(C)c1OCC(=O)N[C@@H](Cc1ccccc1)[C@@H](O)C[C@H](Cc1ccccc1)NC(=O)[C@H](C(C)C)N1CCCNC1=O,"activity change, negative = cytotoxicity",[1],inactive: 5.11%
same,"activity change, negative = cytotoxicity",[2],inactive: 3.05%
same,"activity change, negative = cytotoxicity",[3],inactive: 15.8%
same,"activity change, negative = cytotoxicity",[4],inactive: 4.69%
C[C@]12CCC(=O)C=C1CC[C@@H]1[C@@H]2C(=O)C[C@@]2(C)[C@H]1CC[C@]2(O)C(=O)CO,max response,[5],inactive: -2.98%
CC(C)O,max response,[5],inactive: -22%
CCCCc1nc(Cl)c(CO)n1Cc1ccc(-c2ccccc2-c2nn[nH]n2)cc1,"activity change, negative = cytotoxicity",[1],inactive: 17.8%
same,"activity change, negative = cytotoxicity",[2],inactive: 8.57%
same,"activity change, negative = cytotoxicity",[3],inactive: 3.16%
same,"activity change, negative = cytotoxicity",[6],inactive: 7.5%
same,"activity change, negative = cytotoxicity",[4],inactive: 6.96%
same,"activity change, negative = cytotoxicity",[7],inactive: 14.9%
O=C(O)CCCC[C@@H]1SC[C@@H]2NC(=O)N[C@@H]21,max response,[5],inactive: -9.42%
CN1C(CCl)Nc2cc(Cl)c(S(N)(=O)=O)cc2S1(=O)=O (stereo not given),"activity change, negative = cytotoxicity",[1],inactive: 11.9%
same,"activity change, negative = cytotoxicity",[2],inactive: -4.56%
same,"activity change, negative = cytotoxicity",[3],inactive: -1.36%
same,"activity change, negative = cytotoxicity",[6],inactive: -8.25%
same,"activity change, negative = cytotoxicity",[4],inactive: -1.26%
same,"activity change, negative = cytotoxicity",[7],inactive: -0.0501%
COc1ccc(C[C@H](C)NC[C@@H](O)c2ccc(O)c(NC=O)c2)cc1,"activity change, negative = inhibition",[8]; at 57.5 µM (top of the series),inactive: 0.739%
same,max response,[8]; measured here: cell count channel max response,8.8%
same,max response,[8]; measured here: lipid channel max response,9.21%
CC(C)(C)NCC(O)COc1cccc2c1C[C@H](O)[C@H](O)C2 (stereo not given in full),max response,[5],inactive: -11.4%
NC(N)=O,max response,[5],inactive: -1.39%
Cc1ccccc1,max response,[5],inactive: -8.83%
Nc1nc(N)c2nc(-c3ccccc3)c(N)nc2n1,"activity change, negative = inhibition",[9],inactive: 3270%
Cc1cn([C@H]2C[C@H](F)[C@@H](CO)O2)c(=O)[nH]c1=O,max response,[5],inactive: -4.3%
C#C[C@]1(OC(C)=O)CC[C@H]2[C@@H]3CCC4=C[C@@H](OC(C)=O)CC[C@@H]4[C@H]3CC[C@@]21C,"activity change, negative = cytotoxicity",[1],inactive: -7.15%
same,"activity change, negative = cytotoxicity",[2],inactive: 1.1%
O=C(NCc1ccc(S(=O)(=O)c2cc(F)cc(F)c2)cc1)c1ccc2nccn2c1,Potency,[10],active: 26800 nM
Nc1[nH]c(=O)ncc1F,"activity change, negative = cytotoxicity",[1],inactive: -1.18%
same,"activity change, negative = cytotoxicity",[2],inactive: 1.99%
same,"activity change, negative = cytotoxicity",[3],inactive: 13.5%
same,"activity change, negative = cytotoxicity",[6],inactive: 6.04%
same,"activity change, negative = cytotoxicity",[4],inactive: 14%
same,"activity change, negative = cytotoxicity",[7],inactive: 8.51%
Nc1nc2c(ncn2COCCO)c(=O)[nH]1,"activity change, negative = cytotoxicity",[1],inactive: -0.45%
same,"activity change, negative = cytotoxicity",[2],inactive: -6.8%
same,"activity change, negative = cytotoxicity",[3],inactive: -3.5%
same,"activity change, negative = cytotoxicity",[6],inactive: 10.3%
same,"activity change, negative = cytotoxicity",[4],inactive: -3.04%
same,"activity change, negative = cytotoxicity",[7],inactive: 11%
Cc1noc(C)c1-c1ccc2ncnc(NCc3cccnc3)c2c1,Potency,[11],active: 891 nM
same,Potency,[12],active: 891 nM
CN1CCN(CCC=C2c3ccccc3Sc3ccc(S(=O)(=O)N(C)C)cc32)CC1,max response,[5],inactive: -1.88%
